Laboratory results from patent US20070154573A1 (priority 2005, published 2007).
In brackets after ≈: the same amount, converted by molar mass. Read-outs that look alike come from different tables or passages of the source.

Tests used:
LXF 1121L (lung) [1] = conditions: for IC50: Homo sapiens, read-out: IC50 of standard agent alone
MAXF 401NL (breast) = conditions: for IC50: Homo sapiens, read-out: IC50 of standard agent alone
LXF 1121L (lung) [2] = test system: LXF 1121L (lung)

Structure (SMILES) | IC50 (LXF 1121L (lung) [1]) [ng/mL] | IC50 (MAXF 401NL (breast)) [ng/mL] | IC50 (LXF 1121L (lung) [2]) [ng/mL] | also measured
O=c1[nH]cc(F)c(=O)[nH]1 [5-FU, 5-fluoro-uracil] | 939 (≈ 7.22 µM) | 139 (≈ 1.07 µM) |  | 
COc1cccc2c1C(=O)c1c(O)c3c(c(O)c1C2=O)C[C@@](O)(C(=O)CO)C[C@@H]3O[C@H]1C[C@H](N)[C@H](O)[C@H](C)O1 [ADR, adriamycin] | 13 (≈ 0.0239 µM) | 7 (≈ 0.0129 µM) |  | 
N.N.[Cl][Pt][Cl] [Cis-Platin, cisplatin] |  |  |  | IC50 of standard agent alone (LXF 1121L (lung) [1]; no Breastin, Exp. GF651): >30000 ng/mL; IC50 of standard agent alone (MAXF 401NL (breast); no Breastin, Exp. GF653): 1120 ng/mL
CO[C@@]12[C@H](COC(N)=O)C3=C(C(=O)C(C)=C(N)C3=O)N1C[C@@H]1N[C@@H]12 [Mitomycin, mitomycin-C] |  |  | 55 (≈ 0.165 µM) | 
CCC1=C[C@@H]2CN(C1)Cc1c([nH]c3ccccc13)[C@@](C(=O)OC)(c1cc3c(cc1OC)N(C)[C@H]1[C@@](O)(C(=O)OC)[C@H](OC(C)=O)[C@]4(CC)C=CCN5CC[C@]31[C@@H]54)C2 [Navelbine, navelbine] |  |  | 5 (≈ 0.00642 µM) | 
CC(=O)O[C@H]1C(=O)[C@@]2(C)[C@H]([C@H](OC(=O)c3ccccc3)[C@]3(O)C[C@H](OC(=O)[C@H](O)[C@@H](NC(=O)c4ccccc4)c4ccccc4)C(C)=C1C3(C)C)[C@]1(OC(C)=O)CO[C@@H]1C[C@@H]2O [TAXOL, taxol] | 1.8 (≈ 0.00211 µM) | 0.44 (≈ 0.000515 µM) |  | 
CC[C@@]1(O)C(=O)OCc2c1cc1n(c2=O)Cc2cc3c(CN(C)C)c(O)ccc3nc2-1 [Topotecan, topotecan] |  |  | 5 (≈ 0.0119 µM) | 
